Measured values from patent US20100227767A1, “STOCHASTIC CONFINEMENT TO DETECT, MANIPULATE, AND UTILIZE MOLECULES AND ORGANISMS” (priority 2007, published 2010).

Test system: Methicillin Resistant S. aureus (MRSA, ATCC#43300)
Assay: plug-based microfluidic antibiotic susceptibility screen with alamarBlue viability indicator
Conditions: breakpoint concentration; 4x10^5 CFU/mL; 7 h at 37° C

SMILES: CN[C@H](CC(C)C)C(=O)N[C@H]1C(=O)N[C@@H](CC(N)=O)C(=O)N[C@H]2C(=O)N[C@H]3C(=O)N[C@H](C(=O)N[C@H](C(=O)O)c4cc(O)cc(O)c4-c4cc3ccc4O)[C@H](O)c3ccc(c(Cl)c3)Oc3cc2cc(c3O[C@@H]2O[C@H](CO)[C@@H](O)[C@H](O)[C@H]2O[C@H]2C[C@](C)(N)[C@H](O)[C@H](C)O2)Oc2ccc(cc2Cl)[C@H]1O [VCM, vancomycin]
- susceptibility of MRSA to the antibiotic (sensitive: no plug with fluorescence increase greater than 3 times the VCM baseline; resistant: at least one): sensitive
